# Patent US20110263539A1, “SHIP 1 MODULATOR COMPOUNDS” (THE UNIVERSITY OF BRITISH COLUMBIA, priority 2006, published 2011)
# Test system: J774.1a macrophage cells
# Assay: Macrophage TNF-α NO assay (Assay 3); also: key: a ‘+’ indicates a positive result for desired activity; a ‘−’ indicates a negative result for desired activity
# Format: cell-based
# Conditions: 10 μg/ml test compound, LPS, 24 hr, Griess reagent
# Method: Assay 3) Macrophage TNF-α NO assay. J774.1a macrophage cells were treated with 10 μg/ml of test compound dissolved in solvent for 40 minutes prior to the addition of LPS. Culture supernatants were collected after 24 hr. for determination of NO concentration using the Griess reagent.
row,SMILES,Assay Number 3: Macrophage NO
1,"COC(=O)c1cc(O)c(O)c2c1[C@@]1(C)CCC3C(C)(C)CCC[C@]3(C)[C@H]1C2 (stereo partly drawn) [Compound 8-Epipelorol, 8-Epipelorol, reference compound]",+
2,"COC(=O)c1cc(O)c(O)c2c1[C@]1(C)CCC3C(C)(C)CCC[C@]3(C)[C@@H]1C2 (stereo partly drawn) [Compound 9-Epipelorol, 9-Epipelorol, reference compound]",+
3,"COC(=O)c1cc(O)c(O)c2c1[C@]1(C)CCC3C(C)(C)CCC[C@]3(C)[C@H]1C2 (stereo partly drawn) [Pelorol, pelorol, reference compound]",+
